Assay [1] concerns the target P. sul villin V4V6-HP (residues 355 to 824) (Paralvinella sulfincola). Kind of assay: crystal structure; V4V6-HP/actin: V4V6-HP mixed 1:1 with ATP-G-actin, gel filtration in buffer A; sitting drop, 20°C, 0.1 M tris-HCl pH 8.0, 50% PEG 400, 0.2 M Li2SO4, 1 mM CaCl2; 3.29 Å; two complexes in the asymmetric unit. On the technique in general: In gel filtration, larger molecules generally elute earlier.

Assay [2] has as its target P. sul villin V1V3 (three N-terminal domains V1, V2 and V3) (Paralvinella sulfincola). Kind of assay: crystal structure; V1V3/actin: full-length villin mixed 1:2 with ATP-G-actin in buffer A, no gel filtration; sitting drop, 20°C, 0.1 M bis-tris propane pH 8.5, 20% PEG 3350, 0.2 M sodium nitrate, 1 mM CaCl2; one complex in the crystal.
In assay [3] the target is Paralvinella sulfincola villin (full length) (Paralvinella sulfincola). In words: crystal structure; VA3: villin and chicken ADP-G-actin mixed 1:3 in 2 mM tris-HCl pH 8.0, 0.2 mM ADP, 1.0 mM DTT, 1 mM CaCl2, then SEC; sitting drop, 20°C, 0.1 M bis-tris propane pH 6.5, 10% PEG 3350, 0.2 M KSCN, 5 mM CaCl2/MgCl2; 2.7 Å; two complexes in the asymmetric unit.

As to “chicken skeletal muscle actin (from UniProt P68139 1-377) (natural protein)”, the stoichiometry N (actin subunits per V4V6-HP) in assay [1] turned out to be 1. Moreover, in assay [2], the stoichiometry N (actin subunits per V1V3) came out at 1. Further, in assay [3], the stoichiometry N (actin subunits per villin) was 3.

(Values after publication PMC12674126.)
